{"source": "paper PMC11694514", "about": "“Structural and kinetic characterization of DUSP5 with a Di-phosphorylated tripeptide substrate from the ERK activation loop” (Frontiers in chemical biology, 2024)", "molecular_target": "T1, DUSP5pdWT (Homo sapiens, UniProt Q16690)", "T1 sequence (Q16690 178-319 limits assumed)": "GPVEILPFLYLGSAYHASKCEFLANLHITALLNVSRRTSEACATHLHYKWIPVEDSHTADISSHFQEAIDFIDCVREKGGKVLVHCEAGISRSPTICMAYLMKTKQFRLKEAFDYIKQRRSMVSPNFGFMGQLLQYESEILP", "test": "Steady state inhibition of pNPP hydrolysis by vanadate and phosphate", "conditions": "pNPP substrate; Tris pH 7.5, 0.045 mM DTT; global kinetics analysis", "data": [{"substance": "sodium vanadate", "values": [{"measurement": "Ki", "value": 638, "unit": "nM"}]}]}
